Data published in US20050191296A1.

How the values were obtained:
[1] = molecular target: soluble CD28 (chimeric sCD28/Fc homodimer, R&D Systems catalogue no. 342-CD) (human) (UniProt P10747); assay: SPR (BIAcore), CD28 immobilized, increasing sB7-2 (FIG. 17D)
[2] = molecular target: soluble B7-2 (B7-2-Fc, R&D Systems catalogue no. 141-B2) (human) (UniProt P42081); assay: SPR (BIAcore), sCD28 immobilized, sB7-2 as analyte

Row | Substance | Kd [1] | Kd [2]
1 | soluble B7-2 (B7-2-Fc, R&D Systems catalogue no. 141-B2) (from UniProt P42081 20-239) (Fc fusion) | 19 nM | –
2 | soluble CD28 (chimeric sCD28/Fc homodimer, R&D Systems catalogue no. 342-CD) (from UniProt P10747 19-152) (Fc fusion) | – | 19 nM
